## Apparent affinities of Ab-14 variants for a coronavirus HR2 peptide

Source: Li et al. 2023 (doi:10.1038/s41467-023-39022-2), MIT Lincoln Laboratory and A-Alpha Bio; data file from the FLAb repository.

Antigen: PDVDLGDISGINAS, a 14-residue peptide of the SARS-CoV-2 spike HR2 region.

The variants keep the heavy chain, the linker and the frameworks of Ab-14 (scFv order VH, three GGGGS repeats, VL).
VH: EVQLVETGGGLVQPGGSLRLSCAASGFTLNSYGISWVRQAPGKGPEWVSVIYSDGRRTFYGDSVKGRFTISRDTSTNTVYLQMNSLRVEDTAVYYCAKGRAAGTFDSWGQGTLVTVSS
VL: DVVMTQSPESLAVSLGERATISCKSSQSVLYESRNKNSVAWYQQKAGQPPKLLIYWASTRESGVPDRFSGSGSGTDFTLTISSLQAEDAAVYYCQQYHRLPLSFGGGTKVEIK

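This is the validation round: designs drawn from the data on random variants, tested in the same kind of assay. Group labels follow the data file (Ctrl: baseline library sampled from a position-specific scoring matrix, with some repeated check sequences; En: ensemble of fine-tuned language models; GP: Gaussian process model; HC: hill climbing; Gen: genetic algorithm; Gibbs: Gibbs sampling; a sequence that several methods proposed may carry one label only). AlphaSeq pools MATa yeast showing the antibodies with MATalpha yeast showing the peptide. Binding brings cells together so that they mate, and sequencing counts the barcode pairs among the diploids. Scores were corrected for input abundance and mapped to Kd with protein pairs of known affinity run in the same pool. Mating was done six times.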

The parent's light chain CDRs are KSSQSVLYESRNKNSVA, WASTRES, QQYHRLPLS; each variant's own CDRs replace them letter for letter. Values are apparent Kd, the geometric mean of the replicates that gave a signal; lower means stronger binding. A pair that was not seen in any replicate is written "not detected"; this usually means weak binding, but a binder can also be missed. As a blank, each scFv also met three strains without target: over all light chain designs, 4% of these pairings were detected, typically at 430 nM and seldom below 38 nM. A sequence measured in both rounds can read differently, since the two assays cover different ranges. In the paper, a design with two or fewer of six values counts as a poor binder. Of ten entries with the parent sequence, four were seen in most replicates (averages 2.2 nM to 240 nM), three in one and three in none, so single entries are noisy.

{"CDR-L1": "RSSQSVLYESTNKNSVA", "CDR-L2": "MASTRES", "CDR-L3": "QQYHRLPLS", "group": "Ctrl", "Kd": "7.7 nM", "detected": "6/6"}
{"CDR-L1": "KSSQSVLDPSRNKNSVA", "CDR-L2": "WASTRES", "CDR-L3": "QQYHRAPLS", "group": "Ctrl", "Kd": "8.8 nM", "detected": "1/6"}
{"CDR-L1": "KSSMSYLYESENKNSVA", "CDR-L2": "QASQRES", "CDR-L3": "QQYHRLPLS", "group": "GP_HC", "Kd": "8.0 nM", "detected": "6/6"}
{"CDR-L1": "KLSQSVEYESRNKNNVA", "CDR-L2": "DASTRES", "CDR-L3": "QQYHRLPLS", "group": "GP_Gen", "Kd": "200 pM", "detected": "6/6"}
{"CDR-L1": "IISQSMLYESATHNSIA", "CDR-L2": "QTTTREE", "CDR-L3": "QQYHHLPLI", "group": "En_HC", "Kd": "39 nM", "detected": "6/6"}
{"CDR-L1": "KLSSTAETEHVNRNSVA", "CDR-L2": "ELVTRMK", "CDR-L3": "QQYNRLPLS", "group": "En_Gen", "Kd": "4.7 nM", "detected": "6/6"}
{"CDR-L1": "NRSQSVTYESRNKNSVA", "CDR-L2": "WASTRES", "CDR-L3": "QQYHRLPLS", "group": "Ctrl", "Kd": "530 nM", "detected": "1/6"}
{"CDR-L1": "KLLQSVQYGSRALNSVA", "CDR-L2": "QMSTRED", "CDR-L3": "QQYNRLPLS", "group": "En_HC", "Kd": "1.9 nM", "detected": "6/6"}
{"CDR-L1": "NMNVGANFGKEQEQAIA", "CDR-L2": "DVEDREA", "CDR-L3": "QQYQRLPLH", "group": "En_Gibbs", "Kd": "16 nM", "detected": "6/6"}
{"CDR-L1": "KSSWSVLYESRNKNSVA", "CDR-L2": "DASTRSS", "CDR-L3": "QQYHRLPLS", "group": "GP_HC", "Kd": "7.6 nM", "detected": "6/6"}
{"CDR-L1": "LSSPSYLYESPNKNSVA", "CDR-L2": "EASTRES", "CDR-L3": "QQYHRLPLS", "group": "GP_HC", "Kd": "5.3 nM", "detected": "6/6"}
{"CDR-L1": "KLDQSELYESRNKNSVA", "CDR-L2": "NASQRES", "CDR-L3": "QQYHRLPLS", "group": "GP_Gen", "Kd": "590 pM", "detected": "6/6"}
{"CDR-L1": "KSEQLYYYGDRNKNSVA", "CDR-L2": "QASTRES", "CDR-L3": "QQYHRLPLS", "group": "GP_Gibbs", "Kd": "1.1 nM", "detected": "6/6"}
{"CDR-L1": "MISDLTMYGSRIKNSVA", "CDR-L2": "DLSTRGS", "CDR-L3": "QQYHRLPLS", "group": "En_HC", "Kd": "3.3 nM", "detected": "6/6"}
{"CDR-L1": "KSSHSYLYESRNKNSVA", "CDR-L2": "AASTRES", "CDR-L3": "QQYHRLPLS", "group": "GP_HC", "Kd": "3.0 nM", "detected": "6/6"}
{"CDR-L1": "TIAQSMLYLSNSKNSIA", "CDR-L2": "QAETRES", "CDR-L3": "QQYHRLPIS", "group": "En_HC", "Kd": "1.9 nM", "detected": "6/6"}
{"CDR-L1": "KSSGSVLYESRNANSVA", "CDR-L2": "WASTRES", "CDR-L3": "QQYHRLPLS", "group": "Ctrl", "Kd": "110 nM", "detected": "3/6"}
{"CDR-L1": "KLQQSDLYESRVKNSVA", "CDR-L2": "QASVRES", "CDR-L3": "QQYHRLPLS", "group": "GP_Gibbs", "Kd": "690 pM", "detected": "6/6"}
{"CDR-L1": "QSSQSVQYESMNKNSVA", "CDR-L2": "WASWRES", "CDR-L3": "QQYHCLPLS", "group": "Ctrl", "Kd": "not detected", "detected": "0/6"}
{"CDR-L1": "KLSISWLMESRNKNQVA", "CDR-L2": "HASTRMS", "CDR-L3": "QQYHRLPLS", "group": "GP_Gibbs", "Kd": "13 nM", "detected": "6/6"}
{"CDR-L1": "QSSQSVLRESRYKNSVA", "CDR-L2": "WASTRES", "CDR-L3": "QQVHRLPLS", "group": "Ctrl", "Kd": "not detected", "detected": "0/6"}
{"CDR-L1": "MMSQVTALGQRHRNNVA", "CDR-L2": "QTSTREE", "CDR-L3": "QQYDRLPLV", "group": "En_Gen", "Kd": "3.4 nM", "detected": "6/6"}
{"CDR-L1": "KLRMMTLTGGYFKNSVA", "CDR-L2": "QVSTREN", "CDR-L3": "QSYHRLPLS", "group": "En_HC", "Kd": "100 nM", "detected": "6/6"}
{"CDR-L1": "KLSMETYGLTGHMSSIA", "CDR-L2": "HVEIRWA", "CDR-L3": "QQYHKLPLI", "group": "En_Gibbs", "Kd": "not detected", "detected": "0/6"}
{"CDR-L1": "KFSQSVLGEQRNKNSVA", "CDR-L2": "DASTRES", "CDR-L3": "QQYHRLPLS", "group": "GP_HC", "Kd": "410 pM", "detected": "6/6"}
{"CDR-L1": "TLMQAGEQEDSENKAIA", "CDR-L2": "DAIIKGV", "CDR-L3": "QQYNRLPLT", "group": "En_Gibbs", "Kd": "45 nM", "detected": "4/6"}
{"CDR-L1": "MLGGTMTWESKAKNSVA", "CDR-L2": "QSNTRAE", "CDR-L3": "QQYHRLPLS", "group": "En_HC", "Kd": "1.3 nM", "detected": "6/6"}
{"CDR-L1": "MISQLMNLGQFAINSVA", "CDR-L2": "QATIRNS", "CDR-L3": "QQYDRLPLI", "group": "En_Gen", "Kd": "500 nM", "detected": "5/6"}
{"CDR-L1": "KLQQSNLYEDRNANNVA", "CDR-L2": "NASQRES", "CDR-L3": "QQYHRLPLS", "group": "GP_Gibbs", "Kd": "610 pM", "detected": "6/6"}

Top 3 of the variants detected in all replicates, tightest first:

CDR-L1	CDR-L2	CDR-L3	group	Kd	detected
KLSQSVEYESRNKNNVA	DASTRES	QQYHRLPLS	GP_Gen	200 pM	6/6
KFSQSVLGEQRNKNSVA	DASTRES	QQYHRLPLS	GP_HC	410 pM	6/6
KLDQSELYESRNKNSVA	NASQRES	QQYHRLPLS	GP_Gen	590 pM	6/6